The source of these data is BindingDB's records for 21406034.

The chains behind the UniProt entries cited, without tags or fusion partners. Residues count along the entry.
UniProt P06276, 29-602 limits assumed: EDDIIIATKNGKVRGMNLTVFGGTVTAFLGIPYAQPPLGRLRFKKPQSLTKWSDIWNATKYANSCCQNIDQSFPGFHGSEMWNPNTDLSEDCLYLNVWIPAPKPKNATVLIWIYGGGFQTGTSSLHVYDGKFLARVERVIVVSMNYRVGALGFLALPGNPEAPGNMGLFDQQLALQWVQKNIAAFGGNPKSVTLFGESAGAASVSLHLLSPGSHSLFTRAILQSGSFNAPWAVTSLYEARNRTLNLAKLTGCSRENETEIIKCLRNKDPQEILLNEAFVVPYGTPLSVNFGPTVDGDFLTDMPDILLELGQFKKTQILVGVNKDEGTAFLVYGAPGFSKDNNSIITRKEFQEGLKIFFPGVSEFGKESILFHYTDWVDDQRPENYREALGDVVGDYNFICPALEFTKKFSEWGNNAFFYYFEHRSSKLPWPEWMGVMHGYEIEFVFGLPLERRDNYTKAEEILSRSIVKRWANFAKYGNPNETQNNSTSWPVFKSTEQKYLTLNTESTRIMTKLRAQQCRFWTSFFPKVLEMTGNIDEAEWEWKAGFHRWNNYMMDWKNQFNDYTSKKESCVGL
UniProt P22303, 32-614 limits assumed: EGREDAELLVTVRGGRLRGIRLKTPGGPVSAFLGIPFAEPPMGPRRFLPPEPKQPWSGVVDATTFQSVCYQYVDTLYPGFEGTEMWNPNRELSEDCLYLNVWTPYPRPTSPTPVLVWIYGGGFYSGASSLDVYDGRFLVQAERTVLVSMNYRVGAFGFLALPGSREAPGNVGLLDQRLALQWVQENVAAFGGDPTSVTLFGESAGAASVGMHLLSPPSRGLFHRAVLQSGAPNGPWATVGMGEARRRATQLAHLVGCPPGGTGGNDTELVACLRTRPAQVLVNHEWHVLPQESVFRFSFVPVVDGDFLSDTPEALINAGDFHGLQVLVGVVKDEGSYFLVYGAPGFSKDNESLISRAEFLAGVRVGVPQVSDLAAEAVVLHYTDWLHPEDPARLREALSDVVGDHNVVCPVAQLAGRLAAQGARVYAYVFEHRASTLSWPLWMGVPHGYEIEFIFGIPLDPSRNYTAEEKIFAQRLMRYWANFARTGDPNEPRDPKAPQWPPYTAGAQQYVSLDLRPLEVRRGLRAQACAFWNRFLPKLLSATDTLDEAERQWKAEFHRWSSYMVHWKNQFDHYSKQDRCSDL

One test concerns the target Cholinesterase (Homo sapiens, UniProt P06276). The test is described as follows: In Vitro Assay. The following applies: pH 7.4.
In another test the target is Acetylcholinesterase (Homo sapiens, UniProt P22303). The experiment in a line: In Vitro Assay. The following applies: pH 7.4.

By IC50 is commonly meant the concentration at which inhibition is half-maximal. A higher IC50 goes with a need for much substance. As to `CC(=O)c1cc[n+](C/C=C/C[n+]2ccc(C(C)=O)cc2)cc1`, the IC50 is 324 µM on Cholinesterase and 139 µM against Acetylcholinesterase.
On the same counts, the results for `OCCCc1cc[n+](C/C=C/C[n+]2ccc(CCCO)cc2)cc1` are 1440 µM and 54 µM.
On Acetylcholinesterase, `Cc1cc[n+](C/C=C/C[n+]2ccc(C)cc2)cc1` yielded an IC50 of 0.9 µM.
Consider `CN(C)c1cc[n+](C/C=C/C[n+]2ccc(N(C)C)cc2)cc1`, for which the half-inhibitory concentration (IC50) was determined as 17 µM against Cholinesterase and 1.2 µM against Acetylcholinesterase.
For `O/N=C/c1cc[n+](C/C=C/C[n+]2ccc(/C=N/O)cc2)cc1`, at Cholinesterase, the IC50 was found to be 1620 µM. This counts as millimolar.
Take `OCc1cc[n+](C/C=C/C[n+]2ccc(CO)cc2)cc1`: the IC50 was 4510 µM against Cholinesterase and 799 µM at Acetylcholinesterase.
On the same counts, the results for `CC(C)(C)c1cc[n+](C/C=C/C[n+]2ccc(C(C)(C)C)cc2)cc1` are 169 µM and 40 µM.
In the same order, the values of `CCc1cc[n+](C/C=C/C[n+]2ccc(CC)cc2)cc1` are 850 µM and 212 µM.
Turning to `NC(=O)c1cc[n+](C/C=C/C[n+]2ccc(C(N)=O)cc2)cc1`, at Acetylcholinesterase, the IC50 is 1200 µM.
Regarding `C(=C\C[n+]1ccc(-c2ccccc2)cc1)/C[n+]1ccc(-c2ccccc2)cc1`, the IC50 on Cholinesterase turned out to be 18 µM; against Acetylcholinesterase it was 71 µM.
In the same order, the values of `N#Cc1cc[n+](C/C=C/C[n+]2ccc(C#N)cc2)cc1` are 514 µM and 70 µM.
Molecule `COC(=O)c1cc[n+](C/C=C/C[n+]2ccc(C(=O)OC)cc2)cc1` had an IC50 against Acetylcholinesterase of 401 µM.
The same measure, in the same setting: the same measure for `O=C(O)c1cc[n+](C/C=C/C[n+]2ccc(C(=O)O)cc2)cc1`: 3870 µM; for `Oc1cc[n+](C/C=C/C[n+]2ccc(O)cc2)cc1`: 509 µM.
`O=[N+]([O-])c1ccc(Cc2cc[n+](C/C=C/C[n+]3ccc(Cc4ccc([N+](=O)[O-])cc4)cc3)cc2)cc1`: the IC50 on Cholinesterase turned out to be 18 µM; against Acetylcholinesterase, 73 µM.
In the same order, the values of `C(=C\C[n+]1ccc(CCCc2ccccc2)cc1)/C[n+]1ccc(CCCc2ccccc2)cc1` are 22 µM and 0.05 µM.
